S-ASM inh – inhibitors of human secretory acid sphingomyelinase; AID 504937; P17405; Potency, µM (highest dose often 57.5 µM), inactives show at the top dose activity change, negative = inhibition, hits mostly inhibitors; 340,000 compounds, 0.006% hits; placental ASM, HMU-PC fluorogenic substrate, 60 min
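Human placenta-derived ASM enzyme was preincubated with compound for 10 minutes at room temperature, then given fluorogenic substrate HMU-PC0 (9 uM final) for 60 minutes at 37 °C; a pH 10 stop preceded fluorescence reading at Ex 386/Em 447 nm.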
Rango complex inh – inhibitors of Rango-importin beta complex formation. AID 540263. 340,000 compounds, 0.031% hits. Rango CFP/YFP FRET sensor + importin beta, 45 min. Potency, µM (highest dose often 92.2 µM), inactives show at the highest dose inhibition of complex formation. Q14974; calls by dose curve;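 further: 0% = DMSO wells and 100% = buffer wells lacking importin beta; nearly all actives have a fitted effect of over 15% in size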
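FRET biosensor Rango (snurportin 1 IBB between N-terminal EYFP and C-terminal Cerulean), 50 nM in PBS/1 mM DTT/0.02% Tween-20/0.1% BSA, preincubated 5 min RT with compound; 0.125 microM importin beta added, 45 min RT, CFP/YFP FRET ratio read.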
aSyn yeast inh – alpha-synuclein toxicity inhibition in yeast; 370,000 compounds, 0.14% hits; AID 652106; Yeast expressing alpha-synuclein, growth rescue, BacTiter-Glo, 24 h; Potency, µM (titrated, usually from 46.1 µM), without a hit: top-dose growth rescue (activation), hits mostly activators; further: % of control where 0% means no effect; nearly all actives have a fitted effect of over 65% in size
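Screening used galactose-induced yeast with toxic alpha-synuclein levels, exposed to compound for 24 hr at 30 deg C. Cell growth, read with BacTiter-Glo luminescence, gave the measured signal.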
TDP43 rescue – rescues yeast growth from TDP-43 toxicity; TDP-43 expressing yeast growth rescue, BacTiter-Glo, 24 h; Potency, µM (top dose mostly 46.1 µM), inactives show at the highest dose growth rescue (activation), most hits filed as activators; 410,000 compounds, 1.8% hits; further: % of control where 0% means no effect; nearly all actives have a fitted effect of over 50% in size
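In this qHTS, compounds that restore growth of yeast expressing TDP-43 appear as activators. Cells (OD600=0.02, galactose medium, raffinose-pregrown) are incubated with compound 24 hr at 30 deg C and growth is quantified by BacTiter-Glo.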
Rango release inh – prevents RanGTP from dissociating the Rango-importin beta complex. Biochemical FRET Rango-importin beta, RanGTP-induced dissociation. 340,000 compounds, 0.071% hits. Potency, µM (top dose mostly 46.1 µM), inactives show top-dose activity change, negative = inhibition. AID 540253. O95149+P62826; calls by dose curve; further: % of control where 0% means no effect; nearly all actives have a fitted effect of over 45% in size
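Recombinant Rango FRET biosensor (EYFP–snurportin 1 IBB–cerulean CFP10) at 0.1 uM premixed with 0.25 uM importin beta in PBS, 1 mM DTT, 0.02% Tween-20, 0.1% BSA. Compound added 5 min; RanGTP-RCC1 (0.6 uM Ran, 2 mM GTP, 0.2 uM RCC1) then triggers release, read at 45 min.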
Abeta rescue – restores growth of yeast expressing A-beta42 peptide | AID 1347071 | Potency, µM (titrated, usually from 46.1 µM), most hits filed as activators | 410,000 compounds, 0.063% hits | yeast expressing A-beta42, growth rescue, OD600, 48 h; response scale: 0% DMSO, 100% iron-clioquinol control; further: nearly all actives have a fitted effect of over 55% in size
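Yeast A-beta toxicity model in growth medium with pinned compounds, 48 h at 30 C; growth read as absorbance at 600 nm. Normalized to FeCl3/clioquinol equimolar mix (positive) and DMSO (negative).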
Active calls of the source: *; i = inactive; u = inconclusive; x = not tested or not shown. Only some compounds are listed: those with a hit (about 2% of all), similar ones and a draw of the others. Unless noted, the call rests on the fitted dose curve; in most records, active means well fitted curve in the direction sought with a large enough effect; inconclusive means small, poorly fitted or top-dose-only effect, or another doubt; inactive means no such curve, though single readings can be large; an effect the other way counts as inactive or inconclusive. Potency means the concentration at half of the fitted maximal effect.

SMILES,S-ASM inh,Rango complex inh,aSyn yeast inh,TDP43 rescue,Rango release inh,Abeta rescue
CCn1c(C(=O)N2CCC(C(=O)N3CCN(c4ccccn4)CC3)CC2)cc2sccc21,4.1%,-1.4%,3.9%,4.2%,-0.7%,i
CCn1c(C(=O)N2CCC(C(=O)N3CCN(c4ccc(OC)cc4)CC3)CC2)cc2sccc21,x,x,x,22.4µM*,x,i
CN1CCS/C1=C\C=C1/SC(=S)N(CC(=O)O)C1=O,-2.9%,58µM*,-7.9%,-21.3%,u,i
CCN1C(=O)/C(=C/C=C2/SCCN2C)SC1=S,-7.4%,9.1%,1.5%,0.6%,-18.2%,i
CN1/C(=C\C=C2/SC(=S)N(CC(=O)O)C2=O)C(C)(C)c2ccccc21,3.5%,23.1µM*,-12.0%,-42.1%,u,i
COc1cc2nc(N3CCCN(C)CC3)nc(Nc3ccncc3)c2cc1OC,x,x,-2.0%,x,x,x
COC(=O)c1ccc(-c2c(-c3ccccc3)ncc3cc(F)ccc23)cc1,-7.0%,-3.0%,-25.1%,u,-12.4%,i
N#Cc1ccc(-c2c(-c3ccccc3)ncc3cc(F)ccc23)cc1,-1.8%,-0.3%,-35.2%,15.8µM*,-27.6%,i
O=[N+]([O-])c1ccc(-c2c(-c3ccccc3)ncc3ccc(F)cc23)cc1,-3.7%,u,-24.4%,17.8µM*,-4.0%,i
Cc1cccc(NC(=O)C2CCCN(S(=O)(=O)c3ccc(Br)s3)C2)c1 (stereo not given),x,x,x,23.2%,x,i
O=C(NC1(C(F)(F)F)C(=O)Nc2c1c(=O)[nH]c(=O)n2-c1ccc(Cl)cc1)c1ccccc1F (stereo not given),x,x,x,-5.4%,x,i
CCOC(=O)C1CCCN(C(=O)C2CCN(S(=O)(=O)c3c(C)noc3/C=C/c3ccc(C)cc3)CC2)C1 (stereo not given),x,x,x,11.8%,x,i
CC(C)CC(=O)Nc1sc2c(c1C(=O)O)CCCCC2,-0.5%,-0.1%,-8.1%,11.2µM*,-2.2%,i
O=C(CCc1ccccc1)Nc1sc2c(c1C(=O)O)CCCC2,-0.3%,0.4%,-4.2%,-4.9%,-1.0%,i
CC1(C(=O)Nc2ccc3c(c2)OCCO3)CCN1C(=O)c1ccccc1CCc1ccccc1 (stereo not given),x,x,1.9%,14.1µM*,x,i
Cc1cccc(OC(=O)c2cc(-c3ccc4c(c3)OCCO4)on2)c1C,x,x,x,-2.6%,x,i
COc1ccc(N2C(=O)CSC23C(=O)N2c4c(cccc43)C(C)=CC2(C)C)cc1 (stereo not given),-8.1%,8.3%,15.8µM*,-16.1%,2.0%,i
COc1ccc(N2C(=O)CSC23C(=O)N2CCCc4cccc3c42)cc1 (stereo not given),2.9%,-1.6%,-6.5%,1.3%,-11.6%,i
COc1ccc(C(=O)CSc2nc(-c3ccccn3)nc(C)c2Cl)cc1,-1.2%,0.2%,-11.2%,u,6.4%,i
Cc1nc(-c2ccccn2)nc(SCC(=O)c2ccc(F)cc2)c1Cl,-5.3%,3.6%,u,11.2µM*,1.5%,i
CC(=O)Nc1nc(-c2ccc([N+](=O)[O-])cc2)cs1,0.8%,0.0%,6.1%,10.3%,-7.9%,i
C/C(=N\Nc1nc(C)c(C)s1)c1ccc([N+](=O)[O-])cc1,1.1%,-1.6%,-6.7%,12.6µM*,-7.2%,i
CC(C)=NNc1nc(-c2ccc([N+](=O)[O-])cc2)cs1,-1.8%,5.5%,5.7%,12.6µM*,-16.4%,i
O=C(CCl)N1c2ccccc2Sc2ccc3ccccc3c21,x,x,18.3%,5.01µM*,x,i
CCOc1ccc(N(CC)C(=O)Cc2c(C(=O)O)n(C)c3ccccc23)cc1,-1.0%,u,1.5%,-24.8%,-22.8%,u
CCc1ccc(N(CC)C(=O)Cc2c(C(=O)O)n(C)c3ccccc23)cc1,-0.8%,-4.1%,-10.8%,28.2µM*,-9.6%,i
CC(C)c1ccc(N(C)C(=O)Cc2c(C(=O)O)n(C)c3ccccc23)cc1,4.1%,-1.6%,9.9%,28.2µM*,6.7%,i
CN(C(=O)Cc1c(C(=O)O)n(C)c2ccccc12)c1ccc(Cl)cc1,4.1%,-3.3%,2.9%,-23.4%,3.1%,i
CCn1c2ccccc2c(=O)c2ccccc21,i,u,8.9%,12.6µM*,u,i
Cc1cc(C)c2oc(-c3cccc(NC(=O)COc4ccc(Cl)cc4C)c3C)nc2c1,x,x,0.6%,x,x,x

Compound profiles, as listed above. Order of values: S-ASM inh, Rango complex inh, aSyn yeast inh, TDP43 rescue, Rango release inh, Abeta rescue
Entry for CCn1c2ccccc2c(=O)c2ccccc21 → i, u, 8.9%, 12.6µM*, u, i
Entry for COc1cc2nc(N3CCCN(C)CC3)nc(Nc3ccncc3)c2cc1OC → x, x, -2.0%, x, x, x

Further structures follow:
SMILES,S-ASM inh,Rango complex inh,aSyn yeast inh,TDP43 rescue,Rango release inh,Abeta rescue
COc1cccc(NC(=O)Cn2cnc3c(nc4n3CCCCC4)c2=O)c1,x,x,x,22.0%,x,i
COc1ccccc1N1CCN(C(=O)C2CCCN(c3ncnc4c3nc3n4CCCCC3)C2)CC1 (stereo not given),1.2%,5.4%,-0.8%,23.2%,-7.3%,i
COc1ccccc1N1CCN(c2ncnc3c2nc2n3CCCC2)CC1,x,x,x,35.5µM*,x,i
FC(F)(F)c1cccc(N2CCN(c3ncnc4c3nc3n4CCCC3)CC2)c1,x,x,x,15.8µM*,x,i
COc1ccc(N2CCN(c3ncnc4c3nc3n4CCCCC3)CC2)cc1,x,x,x,15.7%,x,i
COc1cccc(N2CCN(c3ncnc4c3nc3n4CCCCC3)CC2)c1,x,x,x,17.8µM*,x,i
CCN(CC)C(=O)Cn1c(SCC(=O)Nc2ccc(C)c(C)c2)nc2ccccc21,x,x,x,11.1%,x,i
COC(OC)c1ccc(C#N)c(SCc2ccccc2)n1,1.1%,-0.7%,-1.5%,14.1µM*,-10.8%,i
N#C/C(=C\c1cc(Cl)cc(Cl)c1O)C(=O)NC1CCCCC1,6.0%,u,7.1%,-22.3%,6.51µM*,i
O=S(=O)(c1ccc(Cl)c(Cl)c1)c1snnc1-c1ccccc1,-8.2%,0.0%,-18.6%,12.6µM*,0.7%,i
C=CCSc1nnc(-c2cc3c(-c4ccccc4)nn(C)c3s2)n1C,-14.1%,0.6%,6.1%,20µM*,1.1%,i
COC(=O)CNc1cc(S(=O)(=O)N2CCCCC2)ccc1Oc1ccc(C(=O)OC)cc1,-7.6%,3.4%,u,-2.2%,1.2%,i
COC(=O)c1ccc(Oc2ccc(S(=O)(=O)N3CCCCC3)cc2N)cc1,-2.4%,-2.1%,12.6µM*,u,-6.1%,i
N#C/C(=C\c1ccco1)Sc1nc2ccccc2s1,-6.2%,1.6%,-12.8%,15.8µM*,13.3%,i
Cc1cc(S(=O)(=O)c2ccc(Cl)cc2)nc(S(=O)(=O)c2ccc(Cl)cc2)c1C#N,x,x,-73.4%,3.55µM*,x,i
Cc1c(O)ccc2c1OC(C)(C)CC2,x,x,-5.6%,x,x,x
CCCCn1cnc2c(SCc3ccccc3F)nc(N)nc21,-0.3%,-0.3%,7.0%,17.8µM*,1.2%,i

Ordered by value in S-ASM inh (rising): five of the compounds above.
SMILES | S-ASM inh
O=S(=O)(c1ccc(Cl)c(Cl)c1)c1snnc1-c1ccccc1 | -8.2%
CCCCn1cnc2c(SCc3ccccc3F)nc(N)nc21 | -0.3%
COC(OC)c1ccc(C#N)c(SCc2ccccc2)n1 | 1.1%
COc1ccccc1N1CCN(C(=O)C2CCCN(c3ncnc4c3nc3n4CCCCC3)C2)CC1 (stereo not given) | 1.2%
N#C/C(=C\c1cc(Cl)cc(Cl)c1O)C(=O)NC1CCCCC1 | 6.0%
